Values of other authors, collected in US20230190793A1, “Pharmaceutical Preparation for Use in the Treatment of Systemic Inflammatory Response Syndrome (SIRS)” (priority 2020, published 2023).

chlorous acid
Acid dissociation constant as pKa at 298 K: 2
